US20080076812A1, “Formulations of sitaxsentan sodium” (priority 2006, published 2008)
Where “and” joins values, the source holds several entries; their conditions need not be identical. Identical values can stand only once.

Test: Drug-excipient compatibility study
Conditions: binary drug/excipient mixture, 40° C./75% RH open bottle; sodium salt

Cc1cc2c(cc1CC(=O)c1sccc1S(=O)(=O)[N-]c1onc(C)c1Cl)OCO2.[Na+] [Sitaxsentan Sodium, N-(4-chloro-3-methyl-5-isoxazolyl)-2-[2-methyl-4,5-(methylenedioxy)phenylacetyl]-thiophene-3-sulfonamide, sodium salt]
Assay (%) T = 2 Weeks: 100.7%
Assay (%) T = 4 Weeks: 100.8% and 100.9%
